# AlphaSeq binding of Ab-95 light chain variants to a spike HR2 peptide

All variants were tested on one target, the spike HR2 peptide PDVDLGDISGINAS (SARS-CoV-2).

Ab-95 is the parent antibody, in scFv form: VH, then the linker GGGGSGGGGSGGGGS, then VL. The heavy chain is unchanged in all variants.
VH: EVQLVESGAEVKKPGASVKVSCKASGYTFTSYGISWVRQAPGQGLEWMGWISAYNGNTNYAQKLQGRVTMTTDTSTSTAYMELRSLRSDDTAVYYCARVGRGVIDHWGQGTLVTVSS
VL: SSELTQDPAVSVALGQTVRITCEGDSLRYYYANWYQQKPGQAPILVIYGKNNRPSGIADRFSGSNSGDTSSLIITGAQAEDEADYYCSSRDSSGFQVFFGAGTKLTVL

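The parent was found by panning a naive human phage display library on the peptide. Library AAYL52 holds single substitutions and randomly drawn double and triple substitutions in the CDRs. Affinity was read by AlphaSeq, a pooled yeast mating assay with surface-displayed partners. Binding brings cells together so that they mate, and sequencing counts the barcode pairs among the diploids. Each replicate has its own calibration line, from reference interactions of the BCL2 family. Mating was done three times.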

Changes read parent residue, position, new residue, counted from the first residue of the VL shown. All variants listed here change Y30 of the VL, counted from its first residue. The Kd shown is the geometric mean over detected replicates; a lower Kd is a better binder. "nd" means that the variant was in the library but no mating with the target was seen in any replicate; the authors take this as a sign of poor binding, and no number exists. In this assay the parent's reference entry averaged 200 nM; its copy inside this library read 180 nM. Background: pairings of library AAYL52 with three empty control strains gave a value in 28% of cases (median 8.2 µM, 5th percentile 800 nM). Values in that range, when seen in few replicates, are hard to tell from nonspecific mating. The control count says in how many pairings with the empty strains this scFv gave a signal.

For G24K+Y30W+S93C, the assay gave nd (0 of 3 replicates; controls 0 of 9). With Y30I+G94E+Q96I the result was 3.3 µM (3 of 3 replicates; controls 4 of 9). For E23I+Y30M, the assay gave 34 nM (3 of 3 replicates; controls 2 of 9). The variant G24S+Y30H+S55W showed 200 nM (3 of 3 replicates; controls 4 of 9). With Y30T+S55A+S89E the result was 340 nM (3 of 3 replicates; controls 3 of 9). The variant Y30R+Y31W+N51C gave 150 µM (1 of 3 replicates; controls 3 of 9). With Y30Q+Y31R+S89G the result was 22 nM (3 of 3 replicates; controls 3 of 9). The variant R28Q+Y30V+F95K showed 330 nM (3 of 3 replicates; controls 2 of 9).

With Y30L+S88M+S89I the result was 720 nM (3 of 3 replicates; controls 3 of 9). With Y30T+Y31K+Q96D the result was 100 nM (3 of 3 replicates; controls 5 of 9). The variant E23G+Y30F+Q96V showed 510 nM (3 of 3 replicates; controls 6 of 9). The variant Y30M+S89Y+S93V gave 23 nM (3 of 3 replicates; controls 3 of 9). For E23S+G24F+Y30L, the assay gave 880 nM (3 of 3 replicates; controls 5 of 9). The variant Y30I+S55M+S88D gave 21 µM (2 of 3 replicates; controls 2 of 9). The variant Y29N+Y30V+R53N showed 430 nM (3 of 3 replicates; controls 3 of 9). The variant Y30M+G49D+F98H showed 300 nM (3 of 3 replicates; controls 0 of 9).

The variant L27N+Y30P+P54G gave 170 nM (3 of 3 replicates; controls 1 of 9). The variant Y30S+Q96H+V97L showed 11 nM (3 of 3 replicates; controls 5 of 9). The variant E23G+Y30S+A32M gave 170 nM (3 of 3 replicates; controls 4 of 9). The variant Y30R+G49W+Q96Y showed 4.4 µM (3 of 3 replicates; controls 5 of 9). With L27W+Y30H+F95N the result was 1.7 µM (3 of 3 replicates; controls 3 of 9). The variant R28N+Y30G+A32K showed 45 nM (3 of 3 replicates; controls 0 of 9). For E23K+Y30S, the assay gave 8.6 nM (3 of 3 replicates; controls 5 of 9). With G24H+Y30Q+R53Q the result was 520 nM (3 of 3 replicates; controls 2 of 9).

For D25Q+Y30P+V97R, the assay gave 120 nM (3 of 3 replicates; controls 7 of 9). The variant D25W+Y30C+S92I gave 4.1 µM (2 of 3 replicates; controls 1 of 9). The variant Y30G+A32D+D91R showed 180 µM (1 of 3 replicates; controls 5 of 9). With Y30T+K50W+R90D the result was 1.4 µM (3 of 3 replicates; controls 3 of 9). The variant Y30G gave 7.8 nM (3 of 3 replicates; controls 0 of 9). The variant E23R+Y30W+D91E gave 220 nM (3 of 3 replicates; controls 3 of 9). The variant E23R+S26F+Y30T showed 15 nM (3 of 3 replicates; controls 1 of 9). With L27H+R28W+Y30A the result was 2.1 µM (2 of 3 replicates; controls 4 of 9).

The variant Y30S+S93P+F95Y gave 21 nM (3 of 3 replicates; controls 2 of 9). The variant Y30P+S55D showed 14 nM (3 of 3 replicates; controls 2 of 9). For Y30V+N52W+F95I, the assay gave 830 nM (3 of 3 replicates; controls 3 of 9). For Y30I+D91H+F98C, the assay gave 33 µM (1 of 3 replicates; controls 2 of 9). The variant Y30E+K50C+S55T showed 36 µM (1 of 3 replicates; controls 0 of 9). For Y30N+S89T+R90C, the assay gave 5.6 nM (3 of 3 replicates; controls 6 of 9). The variant Y30W+S89R+G94N showed 920 nM (3 of 3 replicates; controls 3 of 9). The variant G24A+Y30M+A32Q gave 1.6 µM (2 of 3 replicates; controls 2 of 9).

Picked from the list: the 4 lowest averages where every replicate gave a value.

changes	Kd (apparent)	seen in	signal with controls
Y30N+S89T+R90C	5.6 nM	3 of 3	6 of 9
Y30G	7.8 nM	3 of 3	0 of 9
E23K+Y30S	8.6 nM	3 of 3	5 of 9
Y30S+Q96H+V97L	11 nM	3 of 3	5 of 9

Data: MIT Lincoln Laboratory AlphaSeq set, Engelhart et al. 2022, doi:10.1038/s41597-022-01779-4, as distributed in FLAb.